scFv variants of Ab-14 (light chain) against a SARS-CoV-2 spike peptide

Reference: Li et al. 2023, doi:10.1038/s41467-023-39022-2. File: FLAb, binding data.

All variants were tested on one target, the spike HR2 peptide PDVDLGDISGINAS (SARS-CoV-2).

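Phage display of a naive human antibody library on the peptide gave the parent. Designed CDR sequences, proposed from the first random library and measured here. Their group label is 14L_En_Gen (En: ensemble of fine-tuned language models; Gen: genetic algorithm). AlphaSeq pools MATa yeast showing the antibodies with MATalpha yeast showing the peptide. The frequency of each diploid, read from paired DNA barcodes, reflects how well the two displayed proteins bind. A regression on co-assayed BCL2-family reference pairs converts the normalised counts of each replicate to an apparent Kd. Mating was done six times.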

Parent: Ab-14, a human scFv built as VH, three GGGGS repeats, VL. Only the CDRs of the light chain vary.
VH: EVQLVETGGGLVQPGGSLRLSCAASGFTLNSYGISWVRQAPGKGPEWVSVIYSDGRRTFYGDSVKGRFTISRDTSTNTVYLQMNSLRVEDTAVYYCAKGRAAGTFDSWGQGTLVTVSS
VL: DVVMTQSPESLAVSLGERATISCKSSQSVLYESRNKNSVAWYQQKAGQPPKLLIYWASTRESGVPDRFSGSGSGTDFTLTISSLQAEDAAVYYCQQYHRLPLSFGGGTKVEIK

The parent's light chain CDRs are KSSQSVLYESRNKNSVA, WASTRES, QQYHRLPLS; each variant's own CDRs replace them letter for letter.
The read-out is the apparent dissociation constant on a log10 scale (nM): the lower, the stronger.
"nd" marks a missing value. The strain was present, yet no cells mated with the target were sequenced in that replicate, which points to weak or no binding.
Empty control strains, which show no peptide, gave a signal in 4% of pairings with all light chain designs; the median was 2.64 and 95% of these signals were weaker than 1.59. No background was subtracted. For each scFv, signals with the empty controls are counted beside the result, with their mean in brackets.
The parent sequence was in this pool as ten entries: three were never detected, three once, and four in most replicates, with averages from 0.34 to 2.37.
The authors averaged sequences with at least three values out of six and counted those with two or fewer as poor binders.
A sequence measured in both rounds can read differently, since the two assays cover different ranges.

{"CDR-L1": "TISQMTSLFSQSINSVA", "CDR-L2": "EVSMREE", "CDR-L3": "QQYDRLPLI", "replicates, log10 nM": "1.60 / 0.86 / 1.26 / 0.74 / 1.33 / 1.06", "control signals": "0 of 18"}
{"CDR-L1": "KIGATLNQLMKKKNNVA", "CDR-L2": "DLVEREN", "CDR-L3": "QQYFRLPLS", "replicates, log10 nM": "0.48 / 0.64 / 0.37 / 0.63 / 0.35 / 0.50", "control signals": "1 of 18 (4.41)"}
{"CDR-L1": "MISNVMNTLTRYGNNVA", "CDR-L2": "DLQERED", "CDR-L3": "QQYFRLPLS", "replicates, log10 nM": "0.86 / 1.66 / 0.91 / 0.99 / 1.34 / 1.02", "control signals": "1 of 18 (2.38)"}
{"CDR-L1": "MLSEFMHMLGAKKNSIA", "CDR-L2": "DLVERAN", "CDR-L3": "QQYHRLPLE", "replicates, log10 nM": "0.84 / 1.03 / 0.60 / 0.62 / 0.66 / 1.00", "control signals": "1 of 18 (1.31)"}
{"CDR-L1": "MMSQVTGLGQRHRNNVA", "CDR-L2": "QTSMRET", "CDR-L3": "QQYDRLPLI", "replicates, log10 nM": "1.43 / 1.93 / 1.39 / 1.34 / 1.18 / 1.30", "control signals": "1 of 18 (2.39)"}
{"CDR-L1": "TLYGLSNMMSKNKNSVA", "CDR-L2": "EMTTREK", "CDR-L3": "QQYDRLPLV", "replicates, log10 nM": "0.88 / 1.00 / 0.89 / 2.08 / 1.27 / 1.80", "control signals": "1 of 18 (2.66)"}
{"CDR-L1": "MVTQMAMSGMTNKRSVA", "CDR-L2": "NAETREH", "CDR-L3": "QQYHRLPLM", "replicates, log10 nM": "0.62 / 0.29 / -0.11 / 0.17 / 0.63 / 0.37", "control signals": "2 of 18 (2.07)"}
{"CDR-L1": "IVSQLMLWGMHATNSIA", "CDR-L2": "EAQTRLN", "CDR-L3": "QQYDRLPLL", "replicates, log10 nM": "nd / 1.04 / nd / 2.97 / nd / nd", "control signals": "0 of 18"}
{"CDR-L1": "KISQMVRVGATANNSIA", "CDR-L2": "EEQTRAK", "CDR-L3": "QQYHRLPLS", "replicates, log10 nM": "0.94 / 0.70 / 1.36 / 0.73 / 0.88 / 0.69", "control signals": "0 of 18"}
{"CDR-L1": "TISQMTSWMSNKKANVA", "CDR-L2": "EVSLREE", "CDR-L3": "QQYDRLPLS", "replicates, log10 nM": "1.31 / 1.97 / 0.86 / 0.99 / 0.76 / 1.12", "control signals": "0 of 18"}
{"CDR-L1": "MISQLGNMGQFAINSVA", "CDR-L2": "QASLRND", "CDR-L3": "QQYDRLPLI", "replicates, log10 nM": "1.21 / 1.46 / 1.06 / 1.04 / 1.12 / 1.50", "control signals": "0 of 18"}
{"CDR-L1": "KISQMARVGSTKQNSIA", "CDR-L2": "EEATRCD", "CDR-L3": "QQYHRLPLA", "replicates, log10 nM": "1.14 / 0.91 / 0.91 / 1.17 / 1.07 / 1.26", "control signals": "3 of 18 (2.92)"}
{"CDR-L1": "TISQMSTLFSQSINNVA", "CDR-L2": "EVSTREE", "CDR-L3": "QQYDRLPLF", "replicates, log10 nM": "nd / 1.95 / nd / nd / nd / 0.81", "control signals": "1 of 18 (1.14)"}
{"CDR-L1": "MLSQMWALGMKASNSVA", "CDR-L2": "QASMRFN", "CDR-L3": "QQYHRLPLI", "replicates, log10 nM": "nd / nd / nd / 2.04 / nd / 1.83", "control signals": "1 of 18 (2.63)"}
{"CDR-L1": "MMSQVSGQGTRHRNNVA", "CDR-L2": "QTSMRET", "CDR-L3": "QQYDRLPLI", "replicates, log10 nM": "0.76 / 1.03 / 0.75 / 0.77 / 1.16 / 0.90", "control signals": "1 of 18 (2.63)"}
{"CDR-L1": "MMSQVSGQGTRHRNNVA", "CDR-L2": "QTSTREP", "CDR-L3": "QQYDRLPLI", "replicates, log10 nM": "0.92 / 1.00 / 0.93 / 1.09 / 1.21 / 0.99", "control signals": "1 of 18 (2.90)"}
{"CDR-L1": "MISQLYNMGQFAINSVA", "CDR-L2": "QANIRNA", "CDR-L3": "QQYDRLPLA", "replicates, log10 nM": "1.57 / 1.43 / 1.12 / 0.99 / 0.81 / 0.74", "control signals": "0 of 18"}
{"CDR-L1": "KLGATMNTEMTKRNNVA", "CDR-L2": "DLVTREN", "CDR-L3": "QQYFRLPLS", "replicates, log10 nM": "0.46 / 0.57 / -0.03 / 0.52 / 0.09 / 0.56", "control signals": "0 of 18"}
{"CDR-L1": "KISMLHNQTFEQSNNVA", "CDR-L2": "EMATREK", "CDR-L3": "QQYNRLPLS", "replicates, log10 nM": "1.15 / 1.24 / -0.07 / 1.13 / 0.93 / 0.94", "control signals": "1 of 18 (1.72)"}
{"CDR-L1": "IVSQMMLWGMHVKNSIA", "CDR-L2": "EAQTRLN", "CDR-L3": "QQYDRLPLF", "replicates, log10 nM": "nd / nd / nd / nd / nd / nd", "control signals": "0 of 18"}
{"CDR-L1": "HMSFLTLGGMRQKNSVA", "CDR-L2": "QMTTREN", "CDR-L3": "QQYDRLPLA", "replicates, log10 nM": "0.26 / 0.91 / 0.35 / 0.30 / 0.46 / 0.29", "control signals": "0 of 18"}
{"CDR-L1": "KIGMTLNQMMHKKNNVA", "CDR-L2": "DLVEREM", "CDR-L3": "QQYFRLPLS", "replicates, log10 nM": "0.91 / -0.05 / 0.19 / 1.83 / 0.25 / -0.03", "control signals": "0 of 18"}
{"CDR-L1": "MISQLMQMGQFAINSVA", "CDR-L2": "QASLRYN", "CDR-L3": "QQYDRLPLM", "replicates, log10 nM": "nd / nd / nd / nd / nd / nd", "control signals": "0 of 18"}
{"CDR-L1": "QISQVMGLSMHQVNNVA", "CDR-L2": "QMTTREE", "CDR-L3": "QQYDRLPLS", "replicates, log10 nM": "1.07 / 0.48 / 0.34 / 0.55 / -0.25 / 1.50", "control signals": "1 of 18 (1.00)"}
{"CDR-L1": "HLGLVTMLEETVRNSVA", "CDR-L2": "NNSTREE", "CDR-L3": "QQYDRLPLS", "replicates, log10 nM": "1.43 / 1.77 / 1.51 / 2.75 / 1.52 / 1.76", "control signals": "5 of 18 (3.32)"}

Excerpt, the first 4 entries:

{"CDR-L1": "TISQMTSLFSQSINSVA", "CDR-L2": "EVSMREE", "CDR-L3": "QQYDRLPLI", "replicates, log10 nM": "1.60 / 0.86 / 1.26 / 0.74 / 1.33 / 1.06", "control signals": "0 of 18"}
{"CDR-L1": "KIGATLNQLMKKKNNVA", "CDR-L2": "DLVEREN", "CDR-L3": "QQYFRLPLS", "replicates, log10 nM": "0.48 / 0.64 / 0.37 / 0.63 / 0.35 / 0.50", "control signals": "1 of 18 (4.41)"}
{"CDR-L1": "MISNVMNTLTRYGNNVA", "CDR-L2": "DLQERED", "CDR-L3": "QQYFRLPLS", "replicates, log10 nM": "0.86 / 1.66 / 0.91 / 0.99 / 1.34 / 1.02", "control signals": "1 of 18 (2.38)"}
{"CDR-L1": "MLSEFMHMLGAKKNSIA", "CDR-L2": "DLVERAN", "CDR-L3": "QQYHRLPLE", "replicates, log10 nM": "0.84 / 1.03 / 0.60 / 0.62 / 0.66 / 1.00", "control signals": "1 of 18 (1.31)"}